Assay results from ChEMBL document CHEMBL5226363, “Alkaloids and Coumarins with Adiponectin-Secretion-Promoting Activities from the Leaves of Orixa japonica” (J Nat Prod, 2023).
Calls of active or inactive are those of the source. The rule behind the calls is not given here.

Sequences of proteins named here, by UniProt entry; tags and fusion partners are left off.
UniProt P55055, whole entry: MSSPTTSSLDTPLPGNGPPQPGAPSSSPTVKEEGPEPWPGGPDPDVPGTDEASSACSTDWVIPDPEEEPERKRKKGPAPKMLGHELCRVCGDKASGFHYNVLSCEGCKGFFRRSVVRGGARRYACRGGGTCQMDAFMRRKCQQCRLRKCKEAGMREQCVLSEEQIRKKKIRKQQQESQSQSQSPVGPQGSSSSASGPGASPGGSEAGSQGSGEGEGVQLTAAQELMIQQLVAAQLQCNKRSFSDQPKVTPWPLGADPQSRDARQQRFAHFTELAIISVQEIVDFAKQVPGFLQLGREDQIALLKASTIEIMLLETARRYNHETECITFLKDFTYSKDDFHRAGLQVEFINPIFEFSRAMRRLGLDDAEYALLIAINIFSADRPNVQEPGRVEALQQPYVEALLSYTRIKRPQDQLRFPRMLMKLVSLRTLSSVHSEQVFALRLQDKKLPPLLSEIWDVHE

Tests used:
[1] = molecular target: T1, Peroxisome proliferator-activated receptor alpha (Homo sapiens) (UniProt Q07869); experiment: Displacement of fluormone pan-PPARgreen from GST-tagged human PPARalpha ligand binding domain at 10 uM by LanthaScreen TR-FRET competitive binding assay
T1 sequence (whole entry): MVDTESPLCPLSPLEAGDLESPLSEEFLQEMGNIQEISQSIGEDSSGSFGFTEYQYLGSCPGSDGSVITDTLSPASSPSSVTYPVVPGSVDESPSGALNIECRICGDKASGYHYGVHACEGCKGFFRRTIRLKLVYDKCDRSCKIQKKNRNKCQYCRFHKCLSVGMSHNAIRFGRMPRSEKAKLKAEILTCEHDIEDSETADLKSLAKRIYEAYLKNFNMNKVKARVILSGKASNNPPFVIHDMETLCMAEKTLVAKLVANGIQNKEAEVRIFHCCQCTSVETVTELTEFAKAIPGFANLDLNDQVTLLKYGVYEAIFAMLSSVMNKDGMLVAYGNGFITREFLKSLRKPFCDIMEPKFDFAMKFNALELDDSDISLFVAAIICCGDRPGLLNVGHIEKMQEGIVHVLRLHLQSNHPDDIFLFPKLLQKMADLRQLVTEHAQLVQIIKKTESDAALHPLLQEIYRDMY

[2] = molecular target: T2, Peroxisome proliferator-activated receptor delta (Homo sapiens) (UniProt Q03181); experiment: Displacement of fluormone pan-PPARgreen from GST-tagged human PPARdelta ligand binding domain at 10 uM by LanthaScreen TR-FRET competitive binding assay
T2 sequence (whole entry): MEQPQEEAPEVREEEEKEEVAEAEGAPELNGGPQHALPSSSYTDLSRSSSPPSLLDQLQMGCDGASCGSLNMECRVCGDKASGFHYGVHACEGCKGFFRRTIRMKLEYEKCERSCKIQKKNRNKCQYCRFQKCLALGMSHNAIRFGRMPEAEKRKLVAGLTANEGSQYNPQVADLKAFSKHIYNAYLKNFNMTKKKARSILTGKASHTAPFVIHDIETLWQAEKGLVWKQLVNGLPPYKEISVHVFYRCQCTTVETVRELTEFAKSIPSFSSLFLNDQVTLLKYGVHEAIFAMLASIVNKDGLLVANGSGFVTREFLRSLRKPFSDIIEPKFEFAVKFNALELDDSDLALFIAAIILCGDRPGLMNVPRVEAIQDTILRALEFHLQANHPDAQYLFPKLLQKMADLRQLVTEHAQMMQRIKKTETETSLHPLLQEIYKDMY

[3] = molecular target: Oxysterols receptor LXR-beta (Homo sapiens) (UniProt P55055); experiment: Agonist activity at GST-tagged LXR-beta ligand binding domain (unknown origin) at 10 uM LanthaScreen TR-FRET Coactivator assay
[4] = molecular target: T3, Bile acid receptor (Homo sapiens) (UniProt Q96RI1); experiment: Agonist activity at GST-tagged FXR ligand binding domain (unknown origin) at 10 uM LanthaScreen TR-FRET Coactivator assay
T3 sequence (whole entry): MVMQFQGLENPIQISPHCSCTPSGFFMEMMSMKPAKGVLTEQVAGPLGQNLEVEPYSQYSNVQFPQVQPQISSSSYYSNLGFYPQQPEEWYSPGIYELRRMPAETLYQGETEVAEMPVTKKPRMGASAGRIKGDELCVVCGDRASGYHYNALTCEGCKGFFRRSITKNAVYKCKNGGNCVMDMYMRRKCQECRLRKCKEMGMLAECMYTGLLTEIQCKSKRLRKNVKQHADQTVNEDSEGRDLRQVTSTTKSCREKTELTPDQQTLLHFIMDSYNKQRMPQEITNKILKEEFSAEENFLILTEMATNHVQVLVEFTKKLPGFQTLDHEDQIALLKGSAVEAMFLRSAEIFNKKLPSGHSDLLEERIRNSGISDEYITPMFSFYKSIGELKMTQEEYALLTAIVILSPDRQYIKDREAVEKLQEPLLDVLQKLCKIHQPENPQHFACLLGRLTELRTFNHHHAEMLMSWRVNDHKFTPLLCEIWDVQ

Activity [1]: inactive | Activity [2]: inactive | Activity [3]: inactive | Activity [4]: inactive
SMILES: COc1c(CC=C(C)C)c(=O)[nH]c2c(OC)c(O)ccc12
